# Measured affinities in a library of Ab-14 heavy chain variants

Target: peptide PDVDLGDISGINAS, taken from heptad repeat 2 (HR2) of SARS-CoV-2 spike.

Ab-14 is the parent antibody, in scFv form: VH, then the linker GGGGSGGGGSGGGGS, then VL. The light chain is unchanged in all variants.
VH: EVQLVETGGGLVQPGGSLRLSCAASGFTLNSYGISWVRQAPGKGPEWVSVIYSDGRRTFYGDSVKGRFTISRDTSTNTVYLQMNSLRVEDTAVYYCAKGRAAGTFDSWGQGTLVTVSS
VL: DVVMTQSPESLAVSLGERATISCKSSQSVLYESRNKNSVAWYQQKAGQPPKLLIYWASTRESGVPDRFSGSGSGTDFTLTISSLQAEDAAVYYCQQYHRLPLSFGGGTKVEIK

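The starting antibody came from a phage panning campaign against this peptide. The variants were designed computationally from a first round of random CDR variants and then made and measured. Group labels follow the data file (Ctrl: baseline library sampled from a position-specific scoring matrix, with some repeated check sequences; Rand: our label for a block that the file lists under HC and that is probably the random mutants of the ten best first-round binders; En: ensemble of fine-tuned language models; GP: Gaussian process model; GPLM: also part of the Gaussian process libraries; HC: hill climbing; Gen: genetic algorithm; Gibbs: Gibbs sampling; a sequence that several methods proposed may carry one label only). The assay is AlphaSeq: two haploid yeast populations carry antibody and antigen on their surface. The frequency of each diploid, read from paired DNA barcodes, reflects how well the two displayed proteins bind. The ratio of observed to expected reads was calibrated, replicate by replicate, on BCL2-family standards whose Kd was known from biolayer interferometry. There are six technical replicates.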

Variants are written as CDR1, CDR2 and CDR3 of the heavy chain (limits as in the source). Parent: GFTLNSYGIS, VIYSDGRRTFYGDSVK, GRAAGTFDS. Numbers give log10(Kd / nM), so 0 is 1 nM and 3 is 1 µM. Smaller is tighter. The mean shown is taken over the replicates in which the pair was detected. "not detected" means that the variant was in the library but no mating with the target was seen in any replicate; the authors take this as a sign of poor binding, and no number exists.

| CDR-H1 | CDR-H2 | CDR-H3 | group | log10 Kd (nM), mean | detected | signal with controls |
|---|---|---|---|---|---|---|
| GFQLNSYGIS | VIYADGRRTFYGDSVK | GQAAGTFDD | GP_Gibbs | 0.14 | 6/6 | 0/18 |
| GFDLNEYGIS | VIYADGRRTFYADSVK | GQIAGTFDS | En_HC | -0.58 | 6/6 | 0/18 |
| GFQLKSYGIS | VIYSDGRRTFYGDSVK | GRAAGTFDS | GP_HC | not detected | 0/6 | 0/18 |
| GFTLNSYGIS | VIYSDGVRTFYSDSVK | GKAAGTFDV | GP_HC | 0.03 | 3/6 | 0/18 |
| GFSLDEYGIS | VIYADGVRQFYADDVK | GGIAGTFNY | En_Gibbs | not detected | 0/6 | 0/18 |
| GFTLNEYGIS | VIYSDGRRTFYIDSVK | GRYAGTFDS | GP_HC | 1.10 | 6/6 | 0/18 |
| GFDLDEYGIS | VIYADGRRTFYKDSVK | GSNAGTFVM | En_HC | not detected | 0/6 | 1/18 |
| GFDLESYGIS | VIYADGRRTFYADDVK | GVNAGTFDI | En_HC | 0.29 | 6/6 | 0/18 |
| GFGLNDYGIS | VIYSDGRRTFYGDSVK | GRTAGTFDS | GPLM_Gen | 0.33 | 6/6 | 2/18 |
| GFELNSYGIS | VIYSDGRRTFYGDDVK | GRTAGTFDS | GP_Gen | 0.79 | 6/6 | 0/18 |
| GFDLNEYGIS | VIYADGRRTFYSDSVK | GEVAGTFIQ | En_HC | -0.06 | 6/6 | 1/18 |
| GFDLDEYGIS | VIYADGMRTAYSDDVK | GNVAGTFDQ | En_Gen | 0.26 | 6/6 | 1/18 |
| GFTLESYGIS | VIYSDGRRTFYMDSVK | GQGAGTFDS | GP_HC | not detected | 0/6 | 0/18 |
| GFWKSSYGIS | VIYSDGRRTFYGDSVK | GGAAGTSDS | Ctrl | not detected | 0/6 | 1/18 |
| GFDLNEYGIS | VIYADGVRKAYSDSVK | GNVAGTFDL | En_Gen | -0.61 | 6/6 | 0/18 |
| GFELNSYGIS | VIYSDGKRTFYGDSVK | GRMAGTFDS | GP_Gibbs | 1.13 | 6/6 | 0/18 |
| GFDLDEYGIS | VIYADGMRTAYANSVK | GNVAGTFDV | En_Gen | -0.18 | 6/6 | 0/18 |
| GFDLAEYGIS | VIYADGMRVSYDQNVK | GTGGGSFNF | En_Gibbs | not detected | 0/6 | 0/18 |
| GFDLGEYGVS | VIYADGRRAQYASKVK | GNFSGNFDK | En_Gibbs | not detected | 0/6 | 0/18 |
| GFSLNEYGIS | VIYSDGRRTFYGDSVK | GKEAGTFDT | GP_Gibbs | -0.14 | 6/6 | 0/18 |
| GFDLNEYGIS | VIYADGRRTFYVDSVK | GTNAGTFDV | En_HC | -0.51 | 6/6 | 0/18 |
| GFDLEDYGIS | VIYADGKRTAYSDSVK | GNVAGTFDV | En_Gen | 0.30 | 6/6 | 0/18 |
| GFDLDEYGIS | VIYADGMRTAYSDSVK | GGNAGTFDT | En_Gen | -0.47 | 6/6 | 0/18 |
| GFDLNSYGIS | VIYSDGRRTFYVDSVK | GQPAGTFDS | GP_HC | 0.67 | 6/6 | 0/18 |
| GFDLNEYGIS | VIYADGVRTFYADSVK | GHVAGTFVS | En_HC | -0.22 | 6/6 | 1/18 |
| GFDLNEYGIS | VIYADGQRTFYTDSVK | GQLAGTFDS | En_HC | -0.22 | 6/6 | 1/18 |
| GFDLNEYGIS | VIYADGQRTYYADSVK | GNEAGTFDV | En_Gen | -0.45 | 6/6 | 0/18 |
| KFNLNSYGIS | VIYSDGRRTFYADSVK | GNAAGTFDS | GP_Gen | 2.70 | 2/6 | 0/18 |
| GNDIEEYGIS | VIYADGQRVNAASQVK | GKQAGTFNL | En_Gibbs | not detected | 0/6 | 1/18 |
| GEDLSEYGIS | VIYADGERRSYANSVK | GGVSGNFSD | En_Gibbs | not detected | 0/6 | 0/18 |
| GFGLNEYGIS | VIYSDGRRTFYTDRVK | GEAAGTFDS | GP_HC | 0.56 | 6/6 | 1/18 |
| GFDLNEYGIS | VIYADGRRTAYIDSVK | GSNAGTFDV | En_HC | -0.65 | 6/6 | 2/18 |
| GFTINSYGIS | VIYSDGRRTFYGDSVK | GRAAGTFDS | Ctrl | not detected | 0/6 | 0/18 |
| GFTLNSYGIS | VIYADGRRTFYGDSVK | GYAIGTFRS | Ctrl | not detected | 0/6 | 0/18 |
| GFTLNSYGIS | VIYSDGRRTFYSDRVK | GQEAGTFDT | GP_Gibbs | 0.48 | 6/6 | 0/18 |
| GFDLEEYGIS | VIYADGHRSKYANSVK | GGQADFALL | En_Gibbs | 2.73 | 2/6 | 2/18 |
| GFDLNEYGIS | VIYADGQRTFYTDSVK | GNVAGTFDV | En_HC | 0.68 | 1/6 | 0/18 |
| GFDLNSYGIS | VIYSDGRRTFYLDSVK | GRAAVTFDS | GP_HC | not detected | 0/6 | 0/18 |
| KFDLNSYGIS | VIYSDGRRTFYIDSVK | GRNAGTFDS | GP_Gibbs | 1.49 | 6/6 | 0/18 |
| GFDLNEYGIS | VIYADGMRTAYTDSVK | GNVAGTFDM | En_Gen | -0.40 | 6/6 | 1/18 |
| GSDLNEYGIS | VIYADGKRSYYADAVK | GGYNIGMSV | En_Gibbs | not detected | 0/6 | 0/18 |
| GFTLNSYGIS | VIYSDGRRTFYSDSVK | GRLAGTFDS | Ctrl+GPLM_Gen | 0.65 | 7/12 | 1/36 |
| GFPLNSYGIS | VIYADGRRTAYTDSVK | GRPAGTFDV | Ctrl | 1.82 | 5/6 | 0/18 |
| GFDLNEYGIS | VIYADGRRTFYTDSVK | GEVAGTFDT | En_HC | -0.48 | 6/6 | 0/18 |
| GFTLNSYGIS | VIYSDGRRTFYADSVK | GQTAGTFDS | GPLM_Gen | 0.08 | 6/6 | 0/18 |
| GFTLDEYGIS | VIYADGVRVEYADNVK | GSHGLYLML | En_Gibbs | not detected | 0/6 | 0/18 |
| GFSIDEYGIS | VIYADGTRTAVATSVK | GGLVAYFDK | En_Gibbs | not detected | 0/6 | 0/18 |
| WFDLNSYGIS | VIYSDGRRTFYHDSVK | GRTAGTFDS | GP_Gibbs | 0.80 | 6/6 | 0/18 |
| GFTLNMYGIS | VIYSDGRRTFYGDSVK | GSAAGTFDS | Ctrl | 1.14 | 6/6 | 0/18 |
| GFELNEYGIS | VIYSDGRRTFYIDSVK | GQAAGTFDK | GP_Gen | 0.05 | 6/6 | 0/18 |
| GFTLNDYGIS | VIYSDGRRTFYGDSVK | GRAALTFAS | Rand | not detected | 0/6 | 0/18 |
| GFTLDSYGIS | VIYADGRRTFYGDSVK | GRAAGTFLS | Ctrl+GPLM_HC | 1.95 | 7/12 | 2/36 |
| GFNLNSYGIS | VIYSDGRRTFYGDSVK | GRAAGTFDL | Ctrl | 1.36 | 5/6 | 1/18 |
| GFTLNSYGIS | VIYSDGRRTFYGDSVK | CRAAGTFES | Ctrl | not detected | 0/6 | 0/18 |
| GFGLDEYGIS | VIYADGVRENYTDDVK | GGSWVVSLT | En_Gibbs | not detected | 0/6 | 0/18 |
| GFTLNSYGIS | VIYSDGRRTFYGDSVK | GRAAFRFDL | Ctrl | not detected | 0/6 | 0/18 |
| GFTLNEYGIS | VIYSDGRRTFYSDSVK | GRTAGCFDS | Ctrl | 1.29 | 6/6 | 0/18 |
| GFDLDEYGIS | VIYADGMRTAYSDSVK | GANAGTFDM | En_Gen | -0.38 | 6/6 | 0/18 |
| GMDLDEYGIS | VIYADGHRRQYAANVK | GVNIDGFDL | En_Gibbs | not detected | 0/6 | 0/18 |
| HFTLNSYGIS | VIYSDGRRTFYGDSVK | GRAAATFDS | Ctrl | 1.47 | 2/6 | 0/18 |
| QFDCNSYGIS | VIYSDGRRTVYGDSVK | GRAAGWFNS | Rand | not detected | 0/6 | 0/18 |
| GFTLNEYGIS | VIYSDGQRTFYGDSVK | GRAAVTFDQ | GPLM_HC | not detected | 0/6 | 0/18 |
| GFTDNSYGIS | VIYADGRRTFYGDSVK | GRAAGTNKS | Rand | not detected | 0/6 | 1/18 |
| GFDLNEYGIS | VIYADGSRTAYADSVK | GNVAGTFDQ | En_Gen | -0.45 | 6/6 | 1/18 |
| GFDLGEYGIS | VIYADGTRTAYVTKVK | GTIAGMFFL | En_Gibbs | not detected | 0/6 | 1/18 |
| GFDLDEYGIS | VIYADGMRTAYADSVK | GENAGTFVM | En_Gen | not detected | 0/6 | 0/18 |
| GFDLNSYGIS | VIYSDGRRTFYIDAVK | GNAAGTFDS | GP_Gen | 0.18 | 6/6 | 1/18 |
| GFDLNEYGIS | VIYADGRRTAYVDQVK | GTNAGTFDQ | En_HC | -0.97 | 6/6 | 0/18 |
| GYTLNEYGIS | VIYSDGRRTEYSDSVK | GRAAGTFDS | GP_HC | 1.73 | 1/6 | 0/18 |
| GFDLNSYGIS | VIYSDGRRTFYADSVK | GRAAGTFDA | GPLM_Gen | 0.98 | 6/6 | 1/18 |
| GFTLNSYGIS | VIYSDGMRCFYADSVK | GRAAGTFDT | Ctrl | not detected | 0/6 | 0/18 |
| GFDLNEYGIS | VIYADGMRTAYTDSVK | GNEAGTFDM | En_HC | 0.58 | 6/6 | 0/18 |
| GFDLDEYGIS | VIYADGQRTVYADSVK | GENAGTFDV | En_Gen | 0.38 | 6/6 | 2/18 |
| GFDLNEYGIS | VIYADGRRTFYTDSVK | GANAGTFDM | En_HC | -0.10 | 6/6 | 0/18 |
| GNTLNEYGIS | VIYSDGRRTFYTDSVK | GRNAGTFDS | GP_HC | 0.43 | 6/6 | 0/18 |
| GFDLNSYGIS | VIYSHGPRTFYGDSVK | GRSAGWFNS | Rand | 0.87 | 1/6 | 0/18 |

In the paper, a design with two or fewer of six values counts as a poor binder. The parent sequence was in this pool as ten entries: three were never detected, three once, and four in most replicates, with averages from 0.34 to 2.37. A sequence that the file lists under several names has all its replicates pooled. The range of this assay differs from that of the first round, and the authors advise against merging the two. As a blank, each scFv also met three strains without target: over all heavy chain designs, 1% of these pairings were detected, typically at 2.08 and seldom below 0.84. For each scFv, signals with the empty controls are counted beside the result.

Data: MIT Lincoln Laboratory AlphaSeq set, Li et al. 2023, doi:10.1038/s41467-023-39022-2, as distributed in FLAb.